According to PMC3166236 (Journal of medicinal chemistry, 2011):

Columns and labels:
[1] = Enzymatic stability in rat intestinal homogenate pH 6.5 at 37 °C; details: Sprague-Dawley, pH 6.5, Half-lives, rat intestinal homogenate pH 6.5, 37 °C
in vitro = details: human

COC(=O)[C@H](Cc1ccc(OP2(=O)CO[C@@H](Cn3ccc(N)nc3=O)CO2)cc1)NC(=O)[C@@H](N)C(C)C (mixture of isomers) [Compound 12, Methyl (L)-valyl-O-[(5S)-5-[(4-amino-2-oxopyrimidin-1(2H)-yl)methyl]-2-oxido-1,4,2-dioxaphosphinan-2-yl]-(L)-tyrosinate]
half-life at 0.5 mg/ml ([1]; t1/2 Intestinal Homogenate pH 6.5, Rp isomer): < 30 min | half-life at 0.5 mg/ml ([1]; t1/2 Intestinal Homogenate pH 6.5, Sp isomer): < 30 min | IC50 (in vitro): > 100 µM
